Test results as given in publication PMC10598209 (Nature Communications, 2023).

How the values were obtained:
[1] = biological target: T1, human RPA heterotrimer (RPA70-RPA32-RPA14) (human, UniProt P27694 1-616; P15927 1-270; P35244 1-121); assay: pull-down; MBP-RECQ4(1–400)-His and full-length RPA heterotrimer (8 μg each) with amylose resin, 30 min at 4 °C, 20 mM K2HPO4 pH 7.5, 10% glycerol, 0.5 mM EDTA, 100 mM KCl, 0.01% NP40, 2 mM BME; SDS-PAGE, Coomassie; conditions: both partners purified
T1 construct: human RPA70; human RPA32; human RPA14; also called heterotrimeric RPA; full-length RPA heterotrimer; source: expression vector a gift from Marc S. Wold; copies: + +

[2] = biological target: T1, human RPA heterotrimer …; assay: NMR titration; 1H-15N HSQC of 50 or 100 μM 15N-labelled protein (RECQ4 or RPA) with step-wise addition or an excess of the unlabelled partner; buffer and temperature in Supplementary Table 6; conditions: both partners purified

Row | binding result [1] | binding result [2] | Binder
1 | binds |  | MBP-RECQ4(1–400)-His (domain or fragment, human, UniProt O94761 1-400, looked up, human RECQ4, Sld2-like region, residues 1-400; also called Sld2-like region of RECQ4 (aa 1–400); not shown: MBP, N-terminal, kept) MERLRDVRERLQAWERAFRRQRGRRPSQDDVEAAPEETRALYREYRTLKRTTGQAGGGLRSSESLPAAAEEAPEPRCWGPHLNRAATKSPQSTPGRSRQGSVPDYGQRLKANLKGTLQAGPALGRRPWPLGRASSKASTPKPPGTGPVPSFAEKVSDEPPQLPEPQPRPGRLQHLQASLSQRLGSLDPGWLQRCHSEVPDFLGAPKACRPDLGSEESQLLIPGESAVLGPGAGSQGPEASAFQEVSIRVGSPQPSSSGGEKRRWNEEPWESPAQVQQESSQAGPPSEGAGAVAVEEDPPGEPVQAQPPQPCSSPSNPRYHGLSPSSQARAGKAEGTAPLHIFPRLARHDRGNYVRLNMKQKHYVRGRALRSRLLRKQAWKQKWRKKGECFGGGGATVTTK
2 |  | binds | RECQ4(1–400) (domain or fragment, human, UniProt O94761 1-400, looked up, H. sapiens RECQ4 residues 1-400, cloned in pET-M11 between NcoI and BamHI; 15N-enriched for NMR; also called Sld2-like region of RECQ4; 15N-enriched RECQ4 (1–400); source: E. coli BL21(DE3), purified (IMAC, TEV cleavage, Mono S, Superdex 75); not shown: His6, N-terminal, cleaved) MERLRDVRERLQAWERAFRRQRGRRPSQDDVEAAPEETRALYREYRTLKRTTGQAGGGLRSSESLPAAAEEAPEPRCWGPHLNRAATKSPQSTPGRSRQGSVPDYGQRLKANLKGTLQAGPALGRRPWPLGRASSKASTPKPPGTGPVPSFAEKVSDEPPQLPEPQPRPGRLQHLQASLSQRLGSLDPGWLQRCHSEVPDFLGAPKACRPDLGSEESQLLIPGESAVLGPGAGSQGPEASAFQEVSIRVGSPQPSSSGGEKRRWNEEPWESPAQVQQESSQAGPPSEGAGAVAVEEDPPGEPVQAQPPQPCSSPSNPRYHGLSPSSQARAGKAEGTAPLHIFPRLARHDRGNYVRLNMKQKHYVRGRALRSRLLRKQAWKQKWRKKGECFGGGGATVTTK
